Assay results from ChEMBL document CHEMBL4814005, “Pragmatic recruitment of memantine as the capping group for the design of HDAC inhibitors: A preliminary attempt to unravel the enigma of glioblastoma” (Eur J Med Chem, 2021).

Tests used:
Homo sapiens [1] = species: Homo sapiens; assay: Selectivity ratio of IC50 for human recombinant HDAC8 to IC50 for human recombinant HDAC6
Homo sapiens [2] = species: Homo sapiens; assay: Selectivity ratio of IC50 for human recombinant HDAC3 to IC50 for human recombinant HDAC6
Homo sapiens [3] = species: Homo sapiens; assay: Selectivity ratio of IC50 for human recombinant HDAC1 to IC50 for human recombinant HDAC6

Row | SMILES | Selectivity ratio (Homo sapiens [1]) | Selectivity ratio (Homo sapiens [2]) | Selectivity ratio (Homo sapiens [3])
1 | CC12CC3CC(C)(C1)CC(NS(=O)(=O)c1cccc(/C=C/C(=O)NO)c1)(C3)C2 | 5.99 | 30.8 | 18.5
2 | CC12CC3CC(C)(C1)CC(NC(=O)CCCCCCCC(=O)NO)(C3)C2 | 4.7 | 18.2 | 12.3
3 | CC12CC3CC(C)(C1)CC(NCc1cccc(NC(=O)CCCCCCC(=O)NO)c1)(C3)C2 | 11.5 | 10.8 | 11.1
4 | CC12CC3CC(C)(C1)CC(NC(=O)CCCCCCC(=O)NO)(C3)C2 | 2.3 | 35 | 12.3
5 | CC12CC3CC(C)(C1)CC(NCc1ccc(/C=C/C(=O)NO)cc1)(C3)C2 | 13.3 | 36.5 | 17.3

Results, then the compound that gave them:

Row | Selectivity ratio (Homo sapiens [1]) | Selectivity ratio (Homo sapiens [2]) | Selectivity ratio (Homo sapiens [3]) | SMILES
6 | 2.6 | 12.7 | 19.4 | CC12CC3CC(C)(C1)CC(NC(=O)CCCCCCCCC(=O)NO)(C3)C2
7 | 2.6 |  |  | CC12CC3CC(C)(C1)CC(NCc1ccc(C(=O)NO)cc1)(C3)C2
8 | 199 |  |  | CC12CC3CC(C)(C1)CC(NCc1ccc(NCc4ccc(C(=O)NO)cc4)cc1)(C3)C2
9 | 71.6 | 10 | 9.22 | CC12CC3CC(C)(C1)CC(NS(=O)(=O)c1ccc(/C=C/C(=O)NO)cc1)(C3)C2
10 | 118 | 148 | 64 | CC12CC3CC(C)(C1)CC(NCc1ccc(NC(=O)CCCCCCC(=O)NO)cc1)(C3)C2
11 | 20 |  | 78.2 | CC12CC3CC(C)(C1)CC(NC(=O)CCCCCC(=O)NO)(C3)C2
